# Antibody variant affinities, Ab-14 light chain, assay B

Values reported by Li et al. 2023, doi:10.1038/s41467-023-39022-2 (FLAb copy).

All variants were tested on one target, the spike HR2 peptide PDVDLGDISGINAS (SARS-CoV-2).

The variants keep the heavy chain, the linker and the frameworks of Ab-14 (scFv order VH, a 15-residue (Gly4Ser)3 linker, VL).
VH: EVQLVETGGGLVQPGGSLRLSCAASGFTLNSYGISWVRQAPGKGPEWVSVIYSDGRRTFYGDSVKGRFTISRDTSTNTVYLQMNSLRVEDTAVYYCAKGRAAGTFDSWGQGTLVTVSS
VL: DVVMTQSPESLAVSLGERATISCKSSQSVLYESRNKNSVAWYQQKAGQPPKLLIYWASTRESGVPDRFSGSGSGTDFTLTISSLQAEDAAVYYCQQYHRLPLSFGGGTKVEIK

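These sequences belong to a second round, designed from the earlier measurements on random variants of the parent. Several design methods are mixed in this list. AlphaSeq pools MATa yeast showing the antibodies with MATalpha yeast showing the peptide. Pairs that bind mate more often; barcode pairs of the diploids are counted by sequencing. Read counts were normalised to the haploid input and turned into Kd by a linear fit to BCL2-family pairs of known affinity, for each replicate. Mating was done six times.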

Variants are written as CDR1, CDR2 and CDR3 of the light chain (limits as in the source). Parent: KSSQSVLYESRNKNSVA, WASTRES, QQYHRLPLS.
Kd is apparent (estimated from mating counts) and averaged on the log scale over replicates with a signal. Smaller is tighter.
"nd" means that the variant was in the library but no mating with the target was seen in any replicate; the authors take this as a sign of poor binding, and no number exists.

CDR-L1 | CDR-L2 | CDR-L3 | Kd (apparent) | replicates with signal
KLGMTLNQLMHKKNNVA | DLVERET | QQYFRLPLS | 2.7 nM | 6/6
QFDLFENYQGNQNASIA | GTTNRHT | QQYQKLPLS | 7.6 nM | 6/6
KLQQWHLYESRMKNSVA | HASKRES | QCYHRLPLS | 48 nM | 6/6
TLTQVTMVESYAKNSVA | QASTRLE | QDYHRLPLS | 2.1 nM | 6/6
KLSQSVLYESRNKNSVA | SASTREQ | QQYHRLPLS | 890 pM | 6/6
MLLQSTMYGQRNRNSVA | HASTRED | QQYHRLPLI | 26 nM | 6/6
MFNMGVGIEDMKWNSVA | SADVRAF | QQYGRLPFS | 7.3 nM | 6/6
KSSQSVLYESGNKNSVA | WASTRES | QQYHRLPCS | 230 nM | 3/6
KIIQEGLYESRNKNSVA | SASTRSP | QQYHRLPLS | 700 pM | 6/6
ILYQSQLYESRNKNSVA | QASKREM | QQYHRLPLS | 3.0 nM | 6/6
KMQGSVLMLSRNCNSVA | QASTREQ | QQYHRLPLS | 4.5 nM | 6/6
KLEGQHLYESRNANSVA | NASTRMS | QQYHRLPLS | 410 pM | 6/6
KFNGAWPGDIQNNQNIA | SADTLNH | QQYAKLPLS | 4.6 nM | 6/6
KVDFLGDYESRNKNSVA | SASTRES | QQYHRLPLS | 1.8 nM | 6/6
KVVQSVDYEPRNKQSVA | DASTRCS | QQYHRLPLS | 1.0 nM | 6/6
KSSQSVLGELRNKNSVA | WASTRES | QQYHRLPLS | 22 nM | 6/6
KSSQSSAYESRNKNSVA | YASTRES | QQYARLPLS | 2.1 nM | 6/6
MISDTVMQGSYSRNSVA | QESTRAE | QQYHHLPLS | 2.4 nM | 6/6
MISQLMNLGQFAINSVA | QAEIRNN | QQYDRLPLI | 47 nM | 4/6
KLSMMVDYMQATHSSVA | QTSTREE | QQYHRLPLS | 3.1 nM | 6/6
KSSHSVDYESSNKNSVA | WASTRES | QQYHRLPLS | 31 nM | 6/6
KISQSVLYESANHNSVA | WASTRES | QQPHRLPLK | nd | 0/6

Second part, the sequence after the result:

Kd (apparent) | replicates with signal | CDR-L1 | CDR-L2 | CDR-L3
11 nM | 6/6 | KSSQAVLYESRNKNSVA | SASTQEA | QQYHRLPLS
13 nM | 6/6 | SLDHDVGYDTHNDKNIA | AETRVDR | QQYAHLPLS
11 nM | 6/6 | MVTQMAMTGMSNKRSVA | NASTREN | QQYHRLPLI
210 nM | 2/6 | KSDQSVLYESRNKNSVA | WASTRES | CQYHRLPLS
460 pM | 6/6 | KFSQSELYESRNKNSVA | EASQRES | QQYHRLPLS
6.1 nM | 6/6 | KLSMSTRYESENKNSIA | ELVTRMS | QQYHRLPLS
680 pM | 6/6 | KFSQSNLYEDRNQNNVA | NASQREQ | QDYHRLPLS
1.4 nM | 6/6 | KVSQSQPYESRNKNSVA | NASTRES | QQYHRLPLS
1.8 nM | 6/6 | KVSQSVLYEWRNKNSVA | NASTRES | QQYHRLPLS
1.5 nM | 6/6 | KLSQLFYKESKQKNNVA | EMTTRGS | QQYDRLPLS
1.0 nM | 6/6 | KCEQSWLYESRVKNNVA | NATQRES | QQYHRLPLS
56 nM | 6/6 | KLTHPTDLWLNHASSIA | DARISEE | QQYYWLPLT
16 nM | 6/6 | KIGATLNQLMHQKNNVA | DLVMRES | QQYHRLPLS
920 pM | 6/6 | KIGMTLNQLMHTKNNVA | DLVTREN | QQYHRLPLS
1.2 nM | 6/6 | KLEQSQLYESRNKNSVA | NASERES | QQYHRLPLS
1.3 nM | 6/6 | KFSQSVLYEDRNFNSVA | NASQRES | QQYHRLPLS
7.6 nM | 6/6 | KSSQSVLYESRFKNSVA | NASTRES | QTYHRLPLS
85 nM | 3/6 | KSSQKVLWESNNKNSIA | YASTRES | QQYHRLPLS
nd | 0/6 | KSSQSVLYESRNKNNVA | WASTRES | VQYHRLPLS
660 pM | 6/6 | HLSEVVLYESRNKNSVA | NASTRES | QQYHRLPLS
310 nM | 2/6 | KSSQSVLYESRHKNSVA | WASTRES | QQYHRLPLS
650 pM | 6/6 | KVSSSYLLESRNKNSVA | EASTRES | QQYHRLPLS
1.1 nM | 6/6 | TISQSAEQESHNKNSVA | DLSVRGS | QQYHRLPLS

Extract of 4 entries:

CDR-L1	CDR-L2	CDR-L3	Kd (apparent)	replicates with signal
KVSSSYLLESRNKNSVA	EASTRES	QQYHRLPLS	650 pM	6/6
MFNMGVGIEDMKWNSVA	SADVRAF	QQYGRLPFS	7.3 nM	6/6
KLSMSTRYESENKNSIA	ELVTRMS	QQYHRLPLS	6.1 nM	6/6
KLGMTLNQLMHKKNNVA	DLVERET	QQYFRLPLS	2.7 nM	6/6

Values of this round are not directly comparable with the first-round values of the same sequences.
The authors' rule: three or more of the six replicates give a measured affinity, fewer mean a poor binder.
Three control strains display no target. For all light chain designs, 4% of the pairings with them gave a signal, with a median of 430 nM and one signal in twenty below 38 nM, so weak values seen in few replicates may be background.